This is an account of results in PubChem BioAssay AID720709 (National Center for Advancing Translational Sciences (NCATS), 2013).

Sequences of proteins named here, by UniProt entry; tags and fusion partners are left off.
UniProt O95398, whole entry: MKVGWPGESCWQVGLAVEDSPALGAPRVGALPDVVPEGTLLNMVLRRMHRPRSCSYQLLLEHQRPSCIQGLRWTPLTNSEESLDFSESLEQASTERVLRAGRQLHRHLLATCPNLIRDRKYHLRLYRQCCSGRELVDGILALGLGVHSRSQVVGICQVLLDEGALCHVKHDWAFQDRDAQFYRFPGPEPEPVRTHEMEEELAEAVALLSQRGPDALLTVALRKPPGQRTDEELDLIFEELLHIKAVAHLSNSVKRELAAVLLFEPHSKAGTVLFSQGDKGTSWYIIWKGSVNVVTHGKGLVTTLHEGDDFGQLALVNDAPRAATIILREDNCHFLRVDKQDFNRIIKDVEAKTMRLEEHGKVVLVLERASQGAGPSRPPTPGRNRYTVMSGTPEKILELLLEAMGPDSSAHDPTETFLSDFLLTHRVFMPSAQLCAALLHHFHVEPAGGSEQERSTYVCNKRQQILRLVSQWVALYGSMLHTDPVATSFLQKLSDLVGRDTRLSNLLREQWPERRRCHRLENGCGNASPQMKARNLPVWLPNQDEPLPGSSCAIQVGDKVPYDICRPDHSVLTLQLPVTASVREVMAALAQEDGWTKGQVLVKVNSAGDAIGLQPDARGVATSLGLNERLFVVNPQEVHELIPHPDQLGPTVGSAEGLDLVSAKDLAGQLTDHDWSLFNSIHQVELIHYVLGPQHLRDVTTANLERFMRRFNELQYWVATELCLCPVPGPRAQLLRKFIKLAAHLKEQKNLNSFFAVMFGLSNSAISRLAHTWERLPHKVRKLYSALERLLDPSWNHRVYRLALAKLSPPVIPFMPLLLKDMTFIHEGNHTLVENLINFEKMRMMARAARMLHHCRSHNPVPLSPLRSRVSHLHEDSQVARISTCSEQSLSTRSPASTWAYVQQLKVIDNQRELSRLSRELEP

The entries are a selection whose mix differs from that of the whole data set. Results filed as inconclusive are left out. The source made the active and inactive calls. The call rests on the fitted dose curve; in most records, active means well fitted inhibition curve with a large enough effect; inconclusive means small, poorly fitted or top-dose-only effect; inactive means no such curve, though single readings can be large or run the other way.

The target in the assay is Rap guanine nucleotide exchange factor 3 (Homo sapiens) (UniProt O95398). In words: qHTS for Antagonist of cAMP-regulated guanine nucleotide exchange factor 3 (EPAC1): primary screen.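 Further: plate controls were vehicle for no effect and positive control for full effect; nearly all actives have a fitted effect of over 50% in size.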 To be noted: EPAC1 GEF assay, Rap1b-BODIPY-GDP exchange fluorescence; at 115 µM (top of the series). From the text:
In multi-cellular eukaryotic organisms, the effects of cAMP are transduced by two ubiquitously-expressed intracellular cAMP receptors, the classic protein kinase A/cAMP-dependent protein kinase (PKA/cAPK) and the more recently discovered exchange protein directly activated by cAMP/cAMP-regulated guanine nucleotide exchange factor (EPAC/cAMP-GEF). Both PKA and EPAC are ubiquitously expressed in all tissues, and an increase in intracellular cAMP levels will lead to the activation of both PKA and EPAC. Therefore, careful dissections of the individual role and relative contribution of EPAC and PKA within the overall cAMP signaling in various model systems are critical for further elucidating the mechanism of cAMP signaling. To date no EPAC-specific antagonists and agonist, as well as isoform-specific agonists have been reported, and developing EPAC-specific pharmacological probes to determine the physiological functions that EPAC play in the overall cAMP-mediated signaling remains a major challenge within the research field. Furthermore, identified regulators of EPAC may lead to new mechanism-based therapeutic strategies specifically targeting the EPAC / cAMP-signaling components as EPAC has been implicated to play important roles in major human pathological conditions such as diabetes, heart disease, and cancer. This qHTS will be used to screen the Molecular Libraries Small Molecule Repository (MLSMR) as a concentration-titration series using the NCGC unique quantitative screening (qHTS) platform to find inhibitors for EPAC1. In addition, this assay will also be used as a counterscreen for the EPAC2 qHTS. This fluorescent based assay is developed and validated for EPAC1 that measures exchange using EPAC effector Rap1 complex with BODIPY-GDP, a GDP analog with a tethered fluorophores. Inhibitors are identified by monitoring the change in fluorescence signal as the exchanged free BODIPY-GDP has a reduced fluorescence compared to Rap1-bound BODIPY-GDP. Decrease in signal (inhibition) is the desired outcome for the EPAC1 antagonist while no activity in this assay is desired for the EPAC2 antagonist counterscreen. de Rooij, J., Zwartkruis, F. J., Verheijen, M. H., Cool, R. H., Nijman, S. M., Wittinghofer, A., and Bos, J.L. (1998) Nature 396, 474-477 [2] Kawasaki, H., Springett, G. M., Mochizuki, N., Toki, S., Nakaya, M., Matsuda, M., Housman, D. E., and Graybiel, A. M. (1998) Science 282, 2275-2279 NIH Chemical Genomics Center [NCGC] NIH Molecular Libraries Probe Centers Network [MLPCN] MLPCN Grant: NS066510 Assay Submitter (PI): Xiaodong Cheng, The University of Texas, Medical Branch
Briefly, three uL of reagents (100 nM EPAC1, 250 nM RAP1B-BODIPY-GDP, 50 uM GDP) were dispensed into a 1536-well Greiner black solid-bottom medium binding assay plate. Controls and test compounds (23 nL) were transferred to the plate via a Kalypsys pin tool equipped with a 1536-pin array. The plates were centrifuged at 1,000 rpm for 15 seconds followed by 5 minute incubation at room temperature. The assay plates were read at 5 minute intervals for 30 minutes in the ViewLux plate reader using 480nm excitation and 540nm emission filters. The results were normalized to the […] positive control ATA and DMSO.
For `CN1CCC(Nc2ccc(Cl)cc2)CC1`, the activity change, negative = inhibition was inactive: -3.08%. As for `COc1cc(OC)cc(C(=O)NCC2(N3CCOCC3)CCCCC2)c1`, the figure is inactive: 2.87%; as for `COc1cccc(C(c2nnnn2C2CCCC2)N2CCC(n3c(=O)[nH]c4ccccc43)CC2)c1OC` (centres undefined), inactive: -2.71%; as for `COc1cccc(C(=O)N(c2cc(C)cc(C)c2)C2CCN(C(=O)OC(C)(C)C)CC2)c1`, inactive: 4.64%.

`CCC(CO)(C(=O)OC1CN2CCC1CC2)c1ccccc1` (centres undefined): the activity change, negative = inhibition is inactive: -10.7%.

With `CC(C)(C)OC(=O)N1CCC(Nc2ccccc2)CC1`, the activity change, negative = inhibition was inactive: -12.3%. Next, `O=C(O)C1(Nc2ccccc2)CCN(Cc2ccccc2)CC1`: inactive: -5.13%.

Regarding `NN(c1ccccc1)C1CCN(CCc2ccccc2)CC1`, the activity change, negative = inhibition is inactive: -0.143%. Next, `CCCOc1ccc(C(=O)NCC2(N(C)C)CCCCC2)cc1`: inactive: 14.9%. As for `O=c1[nH]c2ccccc2n1C1CCN(C(c2cc3ccccc3o2)c2nnnn2C2CCCC2)CC1` (centres undefined), the figure is inactive: -18.7%; as for `CCOc1ncccc1C(=O)NCC1(N2CCOCC2)CCCCC1`, inactive: 14%.

Take `CN1CCC(Nc2ccc(F)c(Cl)c2)CC1`: the activity change, negative = inhibition is inactive: -1.11%. Next, `O=C(NCC1(N2CCCCC2)CCCCC1)c1ccco1`: inactive: 22.4%; `Cn1c(=O)[nH]cc(N(CCCl)CCCl)c1=O`: inactive: -13.9%; `CN(C)c1ccc(C(=O)NCC2(N3CCCCC3)CCCCC2)cc1`: inactive: -5.21%.

`Cc1ccccc1NC1(C#N)CCN(Cc2ccccc2)CC1`: the activity change, negative = inhibition was inactive: -7.01%. As for `CC(C)(C)n1nnnc1C(c1ccnc2ccccc12)N1CCC(n2c(=O)[nH]c3ccccc32)CC1` (centres undefined), the figure is inactive: -7.74%; as for `CCN1CCC(Nc2cccc(F)c2)CC1`, inactive: 7.25%; as for `COc1ccc(C(c2nnnn2C2CCCCC2)N2CCC(n3c(=O)[nH]c4ccccc43)CC2)cc1` (centres undefined), inactive: 1.39%. As for `Cc1ccc(C(=O)NCC2(N3CCCCC3)CCCCC2)o1`, the figure is inactive: -18.7%; as for `Cc1ccc(Nc2c([N+](=O)[O-])cc([N+](=O)[O-])cc2[N+](=O)[O-])cc1`, inactive: -3.61%.

For the molecule `Fc1ccccc1NC1CCN(Cc2ccccc2)CC1`, the activity change, negative = inhibition is inactive: 11.9%. Next, `Cc1ccc(NC2(C#N)CCN(Cc3ccccc3)CC2)cc1`: inactive: -1.7%; `CC(=O)N(c1ccccc1)C1CCNCC1`: inactive: -14.6%. Take `COc1cccc(C(c2nnnn2C2CCCCC2)N2CCC(n3c(=O)[nH]c4ccccc43)CC2)c1OC` (centres undefined): the activity change, negative = inhibition is inactive: -17%. As for `CCC(c1nnnn1C1CCCCC1)N1CCC(n2c(=O)[nH]c3ccccc32)CC1` (centres undefined), the figure is inactive: -23.4%; as for `O=c1[nH]c2ccccc2n1C1CCN(C(c2ccnc3ccccc23)c2nnnn2C2CCCCC2)CC1` (centres undefined), inactive: -19.5%. Next, `COc1cc(OC)cc(C(=O)NCC2(N3CCCCC3)CCCCC2)c1`: inactive: -5.81%.

For the molecule `CC(C)(C)n1nnnc1C(c1cccc2ccccc12)N1CCC(n2c(=O)[nH]c3ccccc32)CC1` (centres undefined), the activity change, negative = inhibition was inactive: -7.05%.

Regarding `CN(C)C1(CNC(=O)c2cccc(C#N)c2)CCCCC1`, the activity change, negative = inhibition is inactive: -19.3%.

Turning to `c1ccc(CN2CCC(Nc3ccccc3)CC2)cc1`, the activity change, negative = inhibition is inactive: 20.5%. Next, `Cc1cc(N(CCCl)CCCl)ccc1C=O`: inactive: 6.11%; `O=c1[nH]c2ccccc2n1C1CCN(C(c2ccccc2)c2nnnn2C2CCCC2)CC1` (centres undefined): inactive: -13.9%. Take `CCCN1CCC(Nc2cc(OC)cc(OC)c2)CC1`: the activity change, negative = inhibition was inactive: 3%. `CCOC(=O)C(CC)C1=NC(C)(C)Cc2ccccc21.O=[N+]([O-])c1cc([N+](=O)[O-])c(O)c([N+](=O)[O-])c1` (centres undefined): the activity change, negative = inhibition is inactive: 7.9%. As for `N#Cc1ccc(C(=O)NCC2(N3CCCCC3)CCCCC2)cc1`, the figure is inactive: -21.6%; as for `CC(C)(C)OC(=O)N1CCC(N(C(=O)c2ccccc2)c2ccc(Cl)cc2)CC1`, inactive: -16.7%; as for `O=C(OC1CN2CCC1CC2)C1c2ccccc2C=Cc2ccccc21` (centres undefined), inactive: 3.74%. Next, `CCc1cc(C(=O)NCC2(N3CCCCC3)CCCCC2)sc1C`: inactive: 17%. As for `O=c1[nH]c2ccccc2n1C1CCN(C(c2cccs2)c2nnnn2C2CCCC2)CC1` (centres undefined), the figure is inactive: -0.26%; as for `O=C(O)c1cccc(Nc2c([N+](=O)[O-])cc([N+](=O)[O-])cc2[N+](=O)[O-])c1`, inactive: -5.01%; as for `CCCCn1nnnc1C(c1cccc(OC)c1OC)N1CCC(n2c(=O)[nH]c3ccccc32)CC1` (centres undefined), inactive: -7.83%. Take `COc1cccc(C(c2nnnn2C(C)(C)C)N2CCC(n3c(=O)[nH]c4ccccc43)CC2)c1OC` (centres undefined): the activity change, negative = inhibition is inactive: -18.8%. With `CCOC(=O)N1CCC(Nc2ccc(C)cc2)CC1`, the activity change, negative = inhibition is inactive: -5.09%.
